Species: Cavia porcellus
Test: Selectivity as ratio of IC50 for mu and kappa opioid receptors

CC[C@H](C)[C@H](NC(=O)[C@H](CCCN=C(N)N)NC(=O)[C@H](CCCN=C(N)N)NC[C@H](CCCCN)NC(=O)[C@H](Cc1ccccc1)NC(=O)CNC(=O)CNC(=O)[C@@H](N)Cc1ccc(O)cc1)C(=O)N[C@@H](CCCN=C(N)N)C(=O)N1CCC[C@H]1C(=O)N[C@@H](CCCCN)C(N)=O
Selectivity: 10

Reference: ChEMBL document CHEMBL1128535, “Synthesis using a Fmoc-based strategy and biological activities of some reduced peptide bond pseudopeptide analogues of dynorphin A1” (J Med Chem, 1995)
